Results on two molecules are retold here after article PMC6943441, “The Meta-Position of Phe^4 in Leu-Enkephalin Regulates Potency, Selectivity, Functional Activity, and Signaling Bias at the Delta and Mu Opioid Receptors” (Molecules, 2019).

Chains of the proteins cited; added tags and fusions are not shown.
UniProt P35372, whole entry: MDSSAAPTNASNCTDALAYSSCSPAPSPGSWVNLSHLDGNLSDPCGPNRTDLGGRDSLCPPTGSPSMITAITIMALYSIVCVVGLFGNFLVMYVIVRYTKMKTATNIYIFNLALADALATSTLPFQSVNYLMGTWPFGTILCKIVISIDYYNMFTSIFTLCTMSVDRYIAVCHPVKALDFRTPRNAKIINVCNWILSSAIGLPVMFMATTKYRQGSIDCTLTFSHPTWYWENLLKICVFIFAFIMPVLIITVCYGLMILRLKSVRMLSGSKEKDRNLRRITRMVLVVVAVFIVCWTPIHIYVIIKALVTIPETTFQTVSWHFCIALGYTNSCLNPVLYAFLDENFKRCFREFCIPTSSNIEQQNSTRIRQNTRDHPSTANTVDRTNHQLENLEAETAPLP

A word on the pKi: it is the Ki on a negative log10 scale, so that one unit is a factor of ten. Lower therefore signals a high Ki. One may read the pEC50 as the negative decadic logarithm of the EC50, by convention in mol/L. A high value points to a small EC50.

Assay [1] has as its target T1, µOR (Homo sapiens, UniProt P35372). The assay can be described thus: Competition radioligand binding, [3H]DAMGO. Here is the method: Next, 100 µL of membrane suspension containing 7 µg protein was added to the agonist wells and incubated for 90 min at room temperature. The reaction mixture was then filtered over a GF-B filter plate (Perkin Elmer) followed by four quick washes with ice-cold 50 mM Tris HCl. The plate was dried overnight, after which 50 µL scintillation fluid (Ultimagold uLLT) was added and radioactivity was counted on a Packard TopCount NXT scintillation counter. All working solutions were prepared in a radioligand assay buffer containing 50 mM Tris HCl, 10 mM MgCl2, and 1 mM ethylenediaminetetraacetic acid at pH 7.4.

The target in assay [2] is T1, µOR. The assay can be described thus: cell-based.
The target of assay [3] is δOR (Homo sapiens, UniProt P41143). The assay can be described thus: PathHunter β-arrestin 2 recruitment assay in CHO cells. (In general: Arrestin recruitment assays detect the binding of arrestin to an activated receptor.)

pEC50, pKi: −log10 of the molar value. Bounds are passed on as bounds.

On to `CC(C)C[C@@H](NC(=O)[C@H](Cc1ccccc1)NC(=O)CNC(=O)[C@@H](C)NC(=O)[C@@H](N)Cc1ccc(O)cc1)C(=O)O` [DADLE, D-Ala^2, D-Leu^5-enkephalin, reference compound], for which the pKi in assay [1] was 8.80. In addition, the pEC50 in assay [2] was 6.33.

In turn, `C[C@@H](NC(=O)[C@@H](N)Cc1ccc(O)cc1)C(=O)NCC(=O)N(C)[C@@H](Cc1ccccc1)C(=O)NCCO` [DAMGO, (D-Ala^2, N-MePhe^4, Gly-ol) enkephalin, reference compound] gave a pEC50 in assay [3] of less than 5.00.
